From US20240327433A1, “PYRIMIDOPYRAN COMPOUND” (Medshine Discovery Inc., priority 2021, published 2024)
Read-outs that look alike come from different tables or passages of the source.

Protein sequences, listed by entry. Tags and fused reporters are not part of them. Residues count along the entry.
UniProt P01116, 1-188 isoform 2 G12D limits assumed: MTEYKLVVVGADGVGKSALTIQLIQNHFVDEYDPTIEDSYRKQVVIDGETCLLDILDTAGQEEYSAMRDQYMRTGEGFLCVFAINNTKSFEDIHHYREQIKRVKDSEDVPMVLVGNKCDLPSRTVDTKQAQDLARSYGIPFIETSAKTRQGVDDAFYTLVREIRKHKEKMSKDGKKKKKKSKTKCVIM

Biological target: KRAS^G12D (Homo sapiens (Human), UniProt P01116, G12D)
Test: Assay of activity of inhibiting KRAS^G12D (TR-FRET, SOS/GTP nucleotide exchange)
Procedure: 20 mL of 1000 mM HEPES, 20 mL of 500 mM EDTA, 10 mL of 5 M sodium chloride, 0.1 mL of 100% Tween 20, and 949.9 mL of water were weighed and formulated to 1 L of solution. The solution was sterilized by filtration and stored at 4° C.
20 mL of 1000 mM HEPES, 10 mL of 1000 mM magnesium chloride, 30 mL of 5 M sodium chloride, 0.05 mL of 100% Tween 20, and 939.95 mL of water were weighed and formulated to 1 L of solution. The solution was sterilized by filtration and stored at 4° C.
9.5 μL of 95 μM KRAS^G12D protein and 440.5 μL of KRAS nucleotide exchange buffer were weighed and mixed. The mixture was incubated at room temperature for 1 hour, and then formulated to […] of solution together with 8.4 μL of 17.9 μM Tb-SA, 1.8 μL of 5 mM Bodipy GDP and 9539.8 μL of KRAS assay buffer. After mixing, the solution was left to stand at room temperature for 6 hours, and stored at −80° C. • b. Assay reagents:
73.3 μL of KRAS/Bodipy GDP/Tb-SA mixture and 2126.7 μL of KRAS assay buffer were weighed and formulated to 2200 μL of solution.
1.59 μL of 166 μM SOS protein, 198 μL of 100 mM GTP and 2000.41 μL of KRAS assay buffer were weighed and formulated to 2200 μL of solution.
• 1) The concentration of a stock solution of the control compound was 1 mM, and the concentration of a stock solution of compounds to be assayed was 10 mM. […]

Cc1cc(N)c(F)c(C2Cc3nc(OC[C@@]45CCCN4C[C@H](F)C5)nc(N4CC5CCC(C4)N5)c3C(C)O2)c1C(F)(F)F (some centres unmarked)
IC50 (read-out: KRAS^G12D IC50, tested form: formate): 3.3 nM

Cc1cc(N)c(F)c(C2OCc3c(nc(OC[C@@]45CCCN4C[C@H](F)C5)nc3N3CC4CCC(C3)N4)C2C)c1C(F)(F)F (some centres unmarked)
IC50 (read-out: KRAS^G12D IC50): 1.1 nM
